Results taken from ChEMBL document CHEMBL1144657, “Discovery of heterobicyclic templates for novel metabotropic glutamate receptor subtype 5 antagonists” (Bioorg Med Chem Lett, 2007).

Protein sequences, listed by entry. Tags and fused reporters are not part of them.
UniProt P31424, whole entry: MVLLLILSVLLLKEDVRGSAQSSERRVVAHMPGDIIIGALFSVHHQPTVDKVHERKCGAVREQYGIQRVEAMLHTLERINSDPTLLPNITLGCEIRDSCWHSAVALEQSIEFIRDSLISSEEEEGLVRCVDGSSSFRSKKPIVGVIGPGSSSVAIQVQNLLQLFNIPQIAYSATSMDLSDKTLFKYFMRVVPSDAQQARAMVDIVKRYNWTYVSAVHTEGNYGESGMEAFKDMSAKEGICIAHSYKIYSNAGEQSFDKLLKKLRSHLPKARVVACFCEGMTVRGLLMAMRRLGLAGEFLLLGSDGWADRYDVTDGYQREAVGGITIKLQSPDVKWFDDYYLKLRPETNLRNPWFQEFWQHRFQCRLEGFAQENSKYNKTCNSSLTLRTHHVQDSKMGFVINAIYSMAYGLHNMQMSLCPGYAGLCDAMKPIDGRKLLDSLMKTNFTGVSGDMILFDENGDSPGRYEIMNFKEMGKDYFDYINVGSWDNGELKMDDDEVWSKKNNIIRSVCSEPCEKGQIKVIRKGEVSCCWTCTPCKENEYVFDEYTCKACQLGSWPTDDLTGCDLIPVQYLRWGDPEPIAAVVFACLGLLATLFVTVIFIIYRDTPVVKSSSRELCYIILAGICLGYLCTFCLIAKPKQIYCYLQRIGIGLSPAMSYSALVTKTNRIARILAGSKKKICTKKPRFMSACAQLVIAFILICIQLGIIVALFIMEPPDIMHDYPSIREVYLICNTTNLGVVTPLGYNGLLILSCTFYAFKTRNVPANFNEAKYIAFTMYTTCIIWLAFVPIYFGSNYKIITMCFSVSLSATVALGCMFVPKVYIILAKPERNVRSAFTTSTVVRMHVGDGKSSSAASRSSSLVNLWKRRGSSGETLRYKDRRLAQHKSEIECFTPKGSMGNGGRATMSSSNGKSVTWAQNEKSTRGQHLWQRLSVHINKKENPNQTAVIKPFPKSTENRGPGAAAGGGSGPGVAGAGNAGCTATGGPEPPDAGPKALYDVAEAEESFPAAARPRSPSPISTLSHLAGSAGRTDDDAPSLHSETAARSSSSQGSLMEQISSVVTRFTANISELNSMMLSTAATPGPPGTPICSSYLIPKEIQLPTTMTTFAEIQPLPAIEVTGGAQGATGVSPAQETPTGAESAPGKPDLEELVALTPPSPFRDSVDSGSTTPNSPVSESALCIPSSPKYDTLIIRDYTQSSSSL

Molecular target: Metabotropic glutamate receptor 5 (Rattus norvegicus, UniProt P31424)
Test: Displacement of [3H]MPEP from mGluR5 in rat brain membrane
Type: cell membranes
Procedure, shortened: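 Binding was measured by the NIMH Psychoactive Drug Screening Program in rat brain membranes, with [3H]MPEP as the mGluR5 radioligand. Single-concentration screens are reported as percent inhibition of [3H]MPEP binding at 10 μM, and some compounds were also tested at 100 μM. For selected compounds, IC50 was determined using a previously published protocol.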

## Cc1cccc(C#Cc2ccccc2)n1
  Ki: 20 nM
